# What follows is the remainder of the data, with few or none of the hits.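 How the source made its calls: active = AUC significantly below DMSO controls by Student t-fit with adjusted P under 0.01; inactive = not significantly reduced.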
# Tested on: Haemophilus parainfluenzae
# Experiment: growth AUC normalised to DMSO control (fraction of control); higher = less growth inhibition, active = hit call of the paper
# Details: 20 µM
smiles,measurement,value
COc1cc(Br)c(C[N+]2(CCOCCC3CCC4CC3C4(C)C)CCOCC2)cc1OC (stereo unspecified) [Pinaverium bromide],growth AUC normalised to DMSO control,inactive: 1.05

# Reference: the supplement of paper PMC12350171
